PubChem BioAssay AID592 (National Center for Advancing Translational Sciences (NCATS), 2007)
Some of the results follow. Calls of active or inactive are those of the source. How the calls were made is not given here.

Assay: qHTS Assay for Spectroscopic Profiling in A647 Spectral Region
Settings: Compound fluorescence, A647 channel (570/671 nm), Tris buffer; hits give high values
Text: NIH Molecular Libraries Screening Centers Network [MLSCN] NIH Chemical Genomics Center [NCGC] […] Occasionally, the artifactual effect may originate from the compounds own spectral or other biophysical properties which generally tend to track its assay concentration. Pre-screening/profiling the library with respect to the compounds spectral properties should help one exclude false positives early on. While the most informative fluorescent profiling data set is obtained by performing a full excitation and emission scan of each well by using a monochromator-based plate reader, such an approach is practical only on a very limited scale as scanning each well requires long time. An alternative approach, applied here, is to perform plate reader scans using selected excitation and emission wavelength pairs to generate a multidimensional relational database that correlates compound concentration and the respective relative fluorescence intensity at a given wavelength set. A standard curve of Alexa 647 (A647) present on each plate as six-point concentration series, was used to compute a normalized fluorescence response, termed dye-equivalent concentration, for each compound at each concentration.
NCGC Assay Protocol Summary: Buffer: 100 mM Tris buffer, pH 8.0 Dye standard plate: The wells in columns 1 through 4 of a Kalypsys polypropylene 1536-well compound plate were filled with standard solutions of fluorophore corresponding to the spectral region of interest. Solutions of A647 were placed in the following wells: AC1, AD1: 3 mM, AC2, AD2: 300 uM, AC3, AD3: 30 uM, AC4, AD4: zero (DMSO), AE1, AF1: 3 uM, AE2, AF2: 900 nM, AE3, AF3: 300 nM, AE4, AF4: zero (DMSO). Assay Steps: Six uL of buffer were dispensed to 1536-well Greiner black plates. Compounds and dye standards (23 nL) were transferred via Kalypsys PinTool. The plates were incubated for 15 min at room temperature, and then read on ViewLux (Perkin-Elmer) High-throughput CCD imager using 570 nm and 671 nm excitation and emission filter set. Keywords: NIH Roadmap, MLSCN, MLI, MLSMR, qHTS, NCGC, A647, A-647, Fluorescent Profiling.

| SMILES | max dye-equivalent concentration |
| --- | --- |
| CN(C(=O)Cc1ccccc1)[C@@H]1CC[C@@]2(CCCO2)C[C@H]1N1CCCC1 | inactive: 2.7 nM |
| C/C1=C2N=C(/C=C3N=C(/C(C)=C4\[N-][C@@](C)([C@H]5N=C1[C@@](C)(CCC(=O)NC[C@H](C)OP(=O)([O-])O[C@@H]1[C@H](O)[C@H](n6cnc7cc(C)c(C)cc76)O[C@@H]1CO)[C@@H]5CC(N)=O)[C@](C)(CC(N)=O)[C@H]4CCC(N)=O)[C@@](C)(CC(N)=O)[C@@H]\3CCC(N)=O)C(C)(C)[C@@H]/2CCC(N)=O.[C-]#N.[Co+3] | inactive: 4 nM |
| N#[O+].[C-]#N.[C-]#N.[C-]#N.[C-]#N.[C-]#N.[Fe+2].[Na+].[Na+] | inactive: 1 nM |
| CCN(CC)CC(O)COC(=O)C(O)(c1ccccc1)C1CCCCC1 (centres undefined) | inactive: 72 nM |
| CCc1nc2c(n1)c1c(non1O)c1c2no[n+]1[O-] | inactive: 9.6 nM |
| COc1ccccc1OP(C)(=O)Nc1c(C)n(C)n(-c2ccccc2)c1=O (centres undefined) | inactive: 3.6 nM |
| O=C(CO)Nc1ccc([As](=O)(O)O)cc1 | inactive: 7.9 nM |
| O=[N+]([O-])c1ccc(C[As](=O)(O)O)cc1 | inactive: 48 nM |
| NCC[C@@H](N)CSP(=O)(O)O | inactive: 38 nM |
| COc1ccccc1OP(C)(=O)Nc1ccc(C)c(C)c1 (centres undefined) | inactive: 3.4 nM |
| [N-]=[N+]=NCC(O)CN=[N+]=[N-] (centres undefined) | inactive: 29 nM |
| Cc1nc2ccc3ccccc3c2o1.O=[N+]([O-])c1cc([N+](=O)[O-])c(O)c([N+](=O)[O-])c1 | inactive: 2.2 nM |
| C(Cc1nn[nH]n1)c1nn[nH]n1 | inactive: 24 nM |
| COC(=O)c1cc2c(s1)N=C(c1ccccc1)N(C)P2(=O)N1CCOCC1 (centres undefined) | inactive: 17 nM |
| O=P1(Nc2nc3ccc(Cl)cc3s2)COc2ccccc2O1 (centres undefined) | inactive: 37 nM |
| CP(=O)(Nc1ccccc1F)Oc1ccccc1 (centres undefined) | inactive: 1 nM |
| O=P(Nc1nccs1)(c1ccccc1)c1ccccc1 | inactive: 23 nM |
| c1nnnn1CCn1cnnn1 | inactive: 1 nM |
| CCOP(C)(=S)SCC(=O)NC(C)(CC)C(=O)O (centres undefined) | inactive: 36 nM |
| CN1CCC[C@H](OC(=O)C(c2ccccc2)c2ccccc2)C1 | inactive: 57 nM |
| NNC(NN)NN.n1nc(-c2nn[nH]n2)n[nH]1 | inactive: 11 nM |
| Cc1ccccc1NP(C)(=O)Nc1ccccc1C | inactive: 41 nM |
| C[C@@H](O)COc1ccc([As](=O)(O)O)cc1N | inactive: 4.3 nM |
| [N-]=[N+]=Nc1ccc([As](=O)(O)O)cc1 | inactive: 3.6 nM |
| CN(C)CCOC(=O)C(O)(c1ccccc1)C1CCCCC1 (centres undefined) | inactive: 1 nM |
| O=C(OC1CN2CCC1CC2)c1cccc(Cl)c1 (centres undefined) | inactive: 6.1 nM |
| Cc1nn(-c2ccccc2)c2c1P(=O)(N1CCOCC1)N(C)C(c1ccccc1)=N2 (centres undefined) | inactive: 21 nM |

| SMILES | max dye-equivalent concentration |
| --- | --- |
| O=P1(Nc2ncccn2)COc2ccccc2OC1 | inactive: 6.8 nM |
| O=P1(Nc2ccc(Br)cn2)COc2ccccc2OC1 | inactive: 30 nM |
| Cc1ccc(OCC(=O)OC2CN3CCC2CC3)cc1 (centres undefined) | inactive: 5 nM |
| O=P1(Nc2ccccn2)COc2ccccc2OC1 | inactive: 30 nM |
| CN(CCCl)Cc1cc(Cl)c(NC2=NCCN2)c(Cl)c1 | inactive: 1 nM |
| Clc1n[nH]nc1-c1nn[nH][15n]1 | inactive: 6.6 nM |
| Cc1nc2ccc3ccccc3c2s1.O=[N+]([O-])c1cc([N+](=O)[O-])c(O)c([N+](=O)[O-])c1 | inactive: 15 nM |
| Cc1cccc(OCC(=O)OC2CN3CCC2CC3)c1 (centres undefined) | inactive: 98 nM |
| O=C(CC(=O)c1ccccc1)O[C@H]1CN2CCC1CC2 | inactive: 1 nM |
| NS(=O)(=O)Cc1ccc([As](=O)(O)O)cc1 | inactive: 1 nM |
| CN(C(=O)Cc1ccc(Cl)c(Cl)c1)[C@@H]1CC[C@@]2(CCCO2)C[C@H]1N1CCCC1 | inactive: 1 nM |
| CCOP1(=S)c2c(C)nn(CCC#N)c2N=C(c2ccccc2F)N1C (centres undefined) | inactive: 10 nM |
| O=P(Nc1nccs1)(c1ccccc1)c1nc2ccccc2s1 (centres undefined) | inactive: 51 nM |
| O=[As](O)(O)c1ccc([As](=O)(O)O)cc1 | inactive: 6 nM |
| NC(=O)Nc1ccc([As](=O)(O)O)cc1 | inactive: 5.8 nM |
| CCOP1(=S)c2c(C)nn(CCC#N)c2N=C(c2ccc(F)cc2)N1C (centres undefined) | inactive: 53 nM |
| O=[As]c1ccc(S(=O)(=O)NCCO)cc1 (centres undefined) | inactive: 1 nM |
| [N-]=[N+]=NCC(N)=O | inactive: 48 nM |
| COc1ccccc1OP(C)(=O)Nc1ccc(C)cc1 (centres undefined) | inactive: 9.8 nM |
| O=C(OC1CN2CCC1CC2)C12CC3CC(CC(C3)C1)C2 (centres undefined) | inactive: 42 nM |
| NC(=O)Nc1cc([As](=O)(O)O)cc(I)c1O | inactive: 50 nM |
| COP1(=S)c2c(C)nn(CCC#N)c2N=C(c2ccc(F)cc2)N1C (centres undefined) | inactive: 26 nM |
| O=C(O)[C@@H](O)c1ccc([As](=O)(O)O)cc1 | inactive: 9.8 nM |
| CP(=O)(NC(=O)Nc1ccccc1)Oc1ccccc1 (centres undefined) | inactive: 1 nM |
| O=C(COc1ccccc1)OC1CN2CCC1CC2 (centres undefined) | inactive: 2.9 nM |
| N1=C(c2nnc(-c3nn[nH]n3)nn2)NNN1 | inactive: 1 nM |
| CP(=S)(Nn1cnnc1)Oc1ccccc1 (centres undefined) | inactive: 4.1 nM |
